Test results from patent US5514670A, “Submicron emulsions for delivery of peptides” (Pharmos Corporation, priority 1993, dated 1996).

Test system: Sprague-Dawley female prepubertal rats (ovarian weight gain)
Experiment: Ovarian weight gain after HCG administration i.p. or i.c. to prepubertal rats
Assay type: in vivo, rat
Details: for ME % / Ovary Weight (NOW) / PA %: single dose; for Ovary Weight (NOW): four days post treatment; for PA %: relative to standard I.P. 1000 U/kg in saline
Protocol: HCG was administered in saline or submicron emulsion (SME), i.p. or i.c. (intracolonic) to anaesthetized Sprague-Dawley female prepubertal rats, 120 g. The rats were sacrificed four days post treatment and the reproductive organs weighed. The ovarian weight gain is a direct and ultimate pharmacological outcome of HCG treatment. Pharmacological effects after colonic administration of HCG in various vehicles was evaluated as PA%; this is defined as follows: [formula] where NOW is Normalized Ovarian Weight, D is the dose, ic indicates intracolonic administration, and iv intravenous administration.

## human chorionic gonadotropin [HCG in saline]
1000 U/kg i.c.
  ovarian weight gain: no ovarian weight gain was observed
I.C., 1000 U/kg
  ME %: 22%
  Ovary Weight (NOW): 9.0 mg/100 kg
  PA %: 5%
I.C., concluded from ovary response / PA%
  absorption after I.C. administration: apparently not absorbed
I.P., 333 U/kg
  ME %: 147%
  Ovary Weight (NOW): 18.3 mg/100 kg
  PA %: 120%
I.P., 666 U/kg
  ME %: 231%
  Ovary Weight (NOW): 24.5 mg/100 kg
  PA %: 95%
I.P., 1000 U/kg
  ME %: 366%
  Ovary Weight (NOW): 34.5 mg/100 kg
Multiple administrations i.c. to the colon of rats
  effect on weight increase of the sex organs: not effective at all
